Where “and” joins values, the source holds several entries; their conditions need not be identical. Equal entries are not always repeated.
Assays:
[1] = target: T1, Fibronectin receptor (Fn-R) (Homo sapiens, UniProt P05556+P08648); conditions: read-out: FnR Binding
T1 construct: Fibronectin receptor (Fn-R) was similarly purified from (100 mM) octyl glucoside-extracted human placenta; from tissue; host or cells: human placenta

Amino acid sequences for entries named in this document (tags omitted). Residues count along the entry.
UniProt P08648, 895-1049 partner limits assumed: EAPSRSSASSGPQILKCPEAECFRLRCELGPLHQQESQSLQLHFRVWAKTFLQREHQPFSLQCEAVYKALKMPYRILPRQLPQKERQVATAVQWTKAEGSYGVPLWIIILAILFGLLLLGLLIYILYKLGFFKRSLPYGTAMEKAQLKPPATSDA
UniProt P08648, 42-894 limits assumed: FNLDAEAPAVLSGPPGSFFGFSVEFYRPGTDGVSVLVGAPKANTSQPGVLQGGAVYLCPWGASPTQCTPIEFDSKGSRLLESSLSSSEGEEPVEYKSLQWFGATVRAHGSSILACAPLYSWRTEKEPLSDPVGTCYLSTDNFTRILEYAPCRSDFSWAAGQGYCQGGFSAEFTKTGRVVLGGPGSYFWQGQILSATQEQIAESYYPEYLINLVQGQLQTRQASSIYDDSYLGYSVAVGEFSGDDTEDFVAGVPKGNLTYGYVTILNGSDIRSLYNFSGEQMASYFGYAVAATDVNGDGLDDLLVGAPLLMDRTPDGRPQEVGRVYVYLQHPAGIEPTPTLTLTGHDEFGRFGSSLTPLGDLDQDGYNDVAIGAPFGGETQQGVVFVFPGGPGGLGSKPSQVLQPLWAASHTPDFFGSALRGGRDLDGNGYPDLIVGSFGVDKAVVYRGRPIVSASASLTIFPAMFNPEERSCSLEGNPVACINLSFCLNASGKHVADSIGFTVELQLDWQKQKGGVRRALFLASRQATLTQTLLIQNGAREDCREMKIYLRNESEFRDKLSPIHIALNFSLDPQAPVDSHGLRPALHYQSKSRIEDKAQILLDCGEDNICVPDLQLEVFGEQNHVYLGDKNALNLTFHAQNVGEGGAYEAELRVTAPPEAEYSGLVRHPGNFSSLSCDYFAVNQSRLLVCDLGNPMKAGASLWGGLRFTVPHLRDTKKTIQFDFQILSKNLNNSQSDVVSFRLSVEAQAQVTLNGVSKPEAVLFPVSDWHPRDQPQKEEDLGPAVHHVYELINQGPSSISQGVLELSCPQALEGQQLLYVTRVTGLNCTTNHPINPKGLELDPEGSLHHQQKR
UniProt P05106, 27-788: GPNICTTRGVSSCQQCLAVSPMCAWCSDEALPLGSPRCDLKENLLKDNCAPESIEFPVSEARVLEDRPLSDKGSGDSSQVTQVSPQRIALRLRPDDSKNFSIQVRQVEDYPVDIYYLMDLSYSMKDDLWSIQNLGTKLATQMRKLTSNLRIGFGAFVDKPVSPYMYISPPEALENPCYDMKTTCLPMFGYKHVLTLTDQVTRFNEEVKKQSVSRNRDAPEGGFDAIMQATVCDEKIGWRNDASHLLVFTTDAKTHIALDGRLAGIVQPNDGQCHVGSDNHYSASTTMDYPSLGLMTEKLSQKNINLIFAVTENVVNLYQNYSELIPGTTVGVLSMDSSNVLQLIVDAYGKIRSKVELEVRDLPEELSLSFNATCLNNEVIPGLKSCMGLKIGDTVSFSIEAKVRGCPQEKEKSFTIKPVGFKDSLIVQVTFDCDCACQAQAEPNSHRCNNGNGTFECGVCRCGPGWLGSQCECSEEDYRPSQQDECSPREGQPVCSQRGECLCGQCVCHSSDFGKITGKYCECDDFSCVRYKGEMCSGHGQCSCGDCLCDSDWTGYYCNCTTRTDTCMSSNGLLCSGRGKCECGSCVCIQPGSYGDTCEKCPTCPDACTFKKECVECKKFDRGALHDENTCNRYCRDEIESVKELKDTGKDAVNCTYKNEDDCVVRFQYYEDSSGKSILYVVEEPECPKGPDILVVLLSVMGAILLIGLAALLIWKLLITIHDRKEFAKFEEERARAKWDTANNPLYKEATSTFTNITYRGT
UniProt P06756, 891-1048 partner limits assumed: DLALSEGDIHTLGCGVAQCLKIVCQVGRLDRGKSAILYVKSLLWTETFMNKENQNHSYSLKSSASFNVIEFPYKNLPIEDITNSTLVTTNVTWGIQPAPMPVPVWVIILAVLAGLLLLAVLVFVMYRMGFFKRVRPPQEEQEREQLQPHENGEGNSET
UniProt P06756, 31-889 limits assumed: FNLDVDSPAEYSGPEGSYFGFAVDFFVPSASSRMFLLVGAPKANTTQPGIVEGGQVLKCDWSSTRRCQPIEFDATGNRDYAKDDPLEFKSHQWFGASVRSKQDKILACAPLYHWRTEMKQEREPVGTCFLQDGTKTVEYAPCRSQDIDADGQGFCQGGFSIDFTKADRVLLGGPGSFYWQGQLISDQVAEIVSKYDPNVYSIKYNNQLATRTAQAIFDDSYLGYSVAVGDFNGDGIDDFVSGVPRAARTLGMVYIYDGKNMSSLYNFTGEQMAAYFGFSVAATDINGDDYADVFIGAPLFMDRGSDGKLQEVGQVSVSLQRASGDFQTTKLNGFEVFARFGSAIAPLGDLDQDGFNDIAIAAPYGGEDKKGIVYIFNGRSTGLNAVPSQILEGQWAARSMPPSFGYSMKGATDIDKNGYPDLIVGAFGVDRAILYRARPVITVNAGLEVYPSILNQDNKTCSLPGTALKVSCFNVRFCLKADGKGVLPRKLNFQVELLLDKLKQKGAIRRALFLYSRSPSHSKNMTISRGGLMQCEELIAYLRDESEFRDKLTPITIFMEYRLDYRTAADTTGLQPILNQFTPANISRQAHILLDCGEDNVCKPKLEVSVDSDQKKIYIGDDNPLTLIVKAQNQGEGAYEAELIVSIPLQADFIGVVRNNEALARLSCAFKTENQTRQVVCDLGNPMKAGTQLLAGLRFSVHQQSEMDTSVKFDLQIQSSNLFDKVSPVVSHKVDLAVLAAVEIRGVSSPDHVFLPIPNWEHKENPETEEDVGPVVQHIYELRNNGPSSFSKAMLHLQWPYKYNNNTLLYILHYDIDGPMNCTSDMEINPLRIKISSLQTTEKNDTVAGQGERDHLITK
UniProt P08514, 32-887 limits assumed: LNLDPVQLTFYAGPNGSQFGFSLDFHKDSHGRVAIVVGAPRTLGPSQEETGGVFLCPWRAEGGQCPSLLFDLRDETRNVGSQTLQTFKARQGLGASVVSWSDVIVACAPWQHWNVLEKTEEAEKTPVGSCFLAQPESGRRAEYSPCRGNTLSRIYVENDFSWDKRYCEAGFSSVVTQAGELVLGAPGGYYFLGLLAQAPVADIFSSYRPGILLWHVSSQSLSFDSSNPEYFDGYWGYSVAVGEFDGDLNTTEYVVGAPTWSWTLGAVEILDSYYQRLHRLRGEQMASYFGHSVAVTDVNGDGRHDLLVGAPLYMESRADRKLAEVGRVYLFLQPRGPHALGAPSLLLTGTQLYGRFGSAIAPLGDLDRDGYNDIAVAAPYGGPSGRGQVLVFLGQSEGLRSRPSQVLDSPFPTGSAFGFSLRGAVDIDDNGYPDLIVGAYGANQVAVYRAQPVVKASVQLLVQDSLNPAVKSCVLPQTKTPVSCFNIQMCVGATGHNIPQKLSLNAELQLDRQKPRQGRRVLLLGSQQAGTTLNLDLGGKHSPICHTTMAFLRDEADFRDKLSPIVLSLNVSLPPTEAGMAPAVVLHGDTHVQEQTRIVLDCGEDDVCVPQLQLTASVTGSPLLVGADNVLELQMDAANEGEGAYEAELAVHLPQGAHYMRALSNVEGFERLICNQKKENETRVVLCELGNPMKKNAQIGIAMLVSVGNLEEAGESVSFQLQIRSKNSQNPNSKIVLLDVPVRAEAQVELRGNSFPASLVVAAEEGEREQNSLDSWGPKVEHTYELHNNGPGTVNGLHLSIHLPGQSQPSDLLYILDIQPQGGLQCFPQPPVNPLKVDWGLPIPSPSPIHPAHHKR
UniProt P08514, 891-1039 partner limits assumed: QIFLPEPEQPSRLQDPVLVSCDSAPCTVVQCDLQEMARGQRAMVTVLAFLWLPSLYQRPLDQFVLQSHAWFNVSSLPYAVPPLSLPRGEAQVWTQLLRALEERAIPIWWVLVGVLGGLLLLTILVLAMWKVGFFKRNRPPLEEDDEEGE

[2] = Bleeding time before and after dose (Table IV); type: in vivo; conditions: dose per code
Description: Bleeding time was quantified at 1 hour before and one, three, and five hours after administration of the peptide. This was done by making a small (5 mm long and 1.5 mm deep) incision in the tongue and subsequently absorbing the exuded blood at this site every 15 seconds with a piece of Whatman filter paper until bleeding stopped. Platelet counts were determined with a Haema Count MK-4/HC platelet counting system.
Using the method described in Example V to measure ex vivo inhibition of platelet aggregation and the method described in Example VII to measure bleeding, four additional peptides were tested. These peptides included 11J, 11Q, 11K and 11V.

[3] = Peripheral blood flow (PBF) by laser doppler probe, rabbit ear; type: in vivo; conditions: bolus dose as printed per drug
Description: (§1) In an alternative series of experiments, (Table 2) PBF was measured quantitatively with a laser dopler flow probe (Perimed). The probe was positioned securely over the vascular bed of one ear and flow monitored continuously. Each inhibitor was infused and CBT measured in the opposing ear. No arterial catheter was placed for blood sampling, consequently XPA […] in these animals.
As positive control, epinephrine was infused intravenously (1 mg over 2 minutes) at 60 minutes. The resulting vasoconstriction reduced flow to near 0 flow units within 5 minutes.

[4] = target: T2, vitronectin receptor (Vn-R) (Homo sapiens, UniProt P05106+P06756); assay: VnR binding, ELISA or liposome attachment assay (Table I)
T2 construct: from tissue; host or cells: human placenta
Description: Receptor and ligand purifications were performed according to the methods in this Example or those in Example XI.C. Receptors were purified according to the procedures of Pytela et al. (Methods Enzymol. 144:475 (1987)), incorporated herein by reference. […] After extraction, the suspension was filtered over a Sepharose 6B column and then applied to a GRGDSPK column. Except where stated, all procedures were carried out at 4° C. The peptide column was washed with three volumes of Tris-buffered saline (TBS) containing 1 mm Ca^2+l and 25 mM CG and then with TBS containing 1 mM Ca^2+ and 25 mM octyl thioglucoside (OTG) at room temperature. […] Finally, Ca^2+ and Mg^2+ were added to eluted fractions to achieve final concentrations of 1 mM for both ions.
Maxisorp microtiter plates were coated with 2 μg/ml human vitronectin dissolved in PBS ([…]) and stored overnight at 4° C. The plates were washed two times with PBS-0.05% Tween-20 (wash buffer) and blocked by incubating with about 150 μl/well of assay buffer (1%, BSA (RIA grade or better) in 50 mM Tris-HCl, 100 mM NaCl, 1 mM MgCl2, CaCl2, MnCl2 pH 7.4) for 60 minutes. Dilutions of standards were prepared and putative inhibitors (Table 2) were dissolved in assay buffer. The blocked plates were emptied and 20 μl/well of inhibitor or standard solution was added to each well. Twenty-five μl of a 30 μg/ml solution of purified αv β3 in assay buffer was pipetted into the coated plate. The final concentration of receptor in the assay well was about 15 μg/ml. The plate was incubated on a shaker for 60 minutes. Meanwhile, for each microtite plate, 6 ml buffer solution containing 1.5 g/ml of mouse monoclonal antibody specific for β3is prepared. To this solution was added the secondary antibody, which is anti-mouse-Fc-HRP antibody conjugate. For example, for one plate, 6 ml of a 1.5 μg/ml mouse Mab solution was prepared to which was added 1 μl of anti-mouse-Fc-HRP antibody stock, (this represents a 1:6000 dilution of the antibody--HRP conjugate). This mixture was allowed to incubate during the receptor-inhibitor incubation. The assay plates were washed 4 times with PBS-Tween and 50 μl/well of the antibody mixture was then pipetted into the plate for a 60 minute incubation. The plate was washed 4 times and the color reaction was developed with 50 μl/well of 0.67 mg/ml o-phenyldiamine in PBS containing 0.012% H2 O2. […] The plates were read at 492-405 nm and the data analyzed by four-parameters fit.
This assay was performed with minor modifications, according to the method of Pytela et al., Methods Enzymol. […] An aliquot of the dialyzed sample was counted to assess radioactive content; the receptor-liposome mixture was then diluted to obtain a set radioactivity per unit volume. […]

platelets = assay: Ex vivo platelet aggregation in canine coronary thrombosis model; parameters: species or system dog; conditions: 10 mg/kg; all three time points
Description: For all ex vivo studies (see FIG. 3), control aggregation values were standardized to the percentages of light transmission observed in PRP and PPP samples (0% and 100%, respectively).
Animals were randomly assigned to two treatment groups: vehicle control (i.e., normal saline) or RGD peptides at various concentrations. Peptides were administered intra-atrially in both bolus and continuous injections. Each bolus injection consisted of 0.5 to 10 mg/kg and was administered 15 minutes before application of the current. A continuous infusion of the same peptide was then started immediately after completion of this initial injection. Animals received a 25 μg/kg/min to 200 μg/kg/min infusion. The anti-thrombotic effects of the peptides were monitored until 30 minutes after the occurrence of a persistent, occlusive thrombus or five hours after the initiation of electrical stimulation (whichever resulted first). […]
Platelet counts and ex vivo aggregation studies were performed one hour before and 1, 3, and 5 hours after application of anodal direct current. Samples of arterial blood were drawn into plastic syringes containing 3.8% trisodium citrate (giving a 1:10 final dilution) and platelet aggregation determined as described in Example V.
Platelet aggregation was also determined ex vivo at one, three, and five hours after current application. […]

[5] = Bleeding time, clotting time and hematology in baboons; type: in vivo, baboon
Description: Twenty-four hours before the ex vivo shunt was established, platelets were isolated from 500 ml of blood from the test animal and labelled with ca. of 500 microcuries of indium-111 oxine (Medi+Physics, Emeryville, Calif.), which irreversibly and specifically binds to platelets with an efficiency of 50%. Immediately after labelling, these platelets were then injected back into the animal and allowed to circulate for 24 hours. Immediately before the start of the study, fibrinogen that had been isolated from the animal and labelled with iodine-131 (DuPont Nuclear, Boston, Mass.) was also injected back into the animal. Also at this time, baseline determinations of the clotting and template bleeding times were made, and blood samples were drawn for hematology studies.
At one- and two-hour time points, template bleeding times were measured, and blood samples were drawn to assess the hematology aggregation studies. Platelet aggregation studies were performed as described in Example V using ADP as the stimulus.
Upon the completion of each study, each shunt was flushed with lactated Ringer's solution, and each graft was then removed. Sections of these grafts were subjected to liquid scintillation counting to determine their content of residual ^131 iodine-fibrinogen and ^111 indium-platelets. The catheters in the femoral artery and vein were then removed, and hemostasis was achieved by compression. Finally, post-procedural blood samples were drawn, and determinations of template bleeding and clotting times were also made.

GP IIb/IIIa = GP IIb/IIIa (Homo sapiens, UniProt P05106+P08514); assay: IIb/IIIa binding, ELISA or liposome attachment assay (Table I); parameters: Platelet glycoprotein Ilb/IIIa was purified from outdated human platelets; from tissue; host or cells: outdated human platelets; conditions: no unit printed in Table I
[6] = Cutaneous bleeding time (CBT), rabbit; type: in vivo; conditions: bolus dose as printed per drug
Description: Unanesthetized male New Zealand White rabbits (2.5-3.5 kg) were placed in a standard rabbit restrainer. Ears were shaved and a 20G teflon catheter with flowswitch (Viggo) was placed in the medial artery, flushed with saline and locked with 1 ml of heparinized saline (10 m/ml). A 22G catheter (Abbott) fitted with an injection cap (Medex) was placed in the marginal vein of the same ear. Saline or a GP IIb III3 receptor antagonist, at a concentration of 1 to 3 mg/ml, was infused via the venous catheter. At time 0, 41% of the dose was given as a bolus over 2 minutes. The remainder was continuously infused over the following 60 minutes. Blood samples (3.2 ml) were collected into syringes without needles via the arterial catheter at -10, -5, 10, 45 and 60 minutes. The first 0.5 ml was discarded and the following 2.7 ml was collected directly into a syringe containing 0.3 ml of 3.8% sodium citrate. The sample was divided into 1.5 ml aliquots and centrifuged at room temperature for 5 seconds at 12,000 G. The resulting platelet rich plasma (PRP) is used to measure ex-vivo platelet aggregation (XPA). At -10 and 60 minutes an additional 1.5 ml sample is drawn for an automated blood count (Baker Instruments). Catheters are flushed and locked after every sample.
CBT Was measured at -10, -5, 10, and 45 minutes on the opposite ear, using an automated incision-making instrument Surgicutt^R, ITD). An incision (5 mm×1 mm deep) was made on the dorsal surface of the ear at sites not supplied by major blood vessels. Blood was blotted away with absorbent paper placed near the incision site, every 2 to 15 seconds, to a maximum of 15 minutes. Cessation of bleeding was defined as no blood forming at the incision site for 15 seconds. The range of duplicate CBT in 40 normal rabbits was 0.88 to 3.38 minutes.
as §1

[7] = animal 1, immediately after completion of second shunt
[8] = time 10 min, listed as R(PmC)GHRGD(Y-OMe)RCR
[9] = time 45 min, listed as R(PmC)GHRGD(Y-OMe)RCR

Work on Ac(dPen)IPRGD(O-Me-Tyr)RC-NH2 yielded an IC50 [1] of 6.75 µM.

With Ac-CNPKGD(Y-OMe)RC-NH2 [11Q] the “Post dose bleeding time” value [2] was 3.5 min.

For Ac-CNPRGD(Y-OMe)(Nle)C-NH2 [11V], the “Post dose bleeding time” value [2] was 21 min.

With Ac-CNPRGD(Y-OMe)AC-NH2 [11K] the “Post dose bleeding time” value [2] was > 30 min.

With Ac-CNPRGD(Y-OMe)EC-NH2 [11J] the “Post dose bleeding time” value [2] was > 30 min.

For Ac-CNPRGD(Y-OMe)RCNH2 [8x], the “PBF (units)” value ([3]; time 0 min (pre-infusion)) was 263 units, the “PBF (units)” value ([3]; time 10 min) was 317 units and the “PBF (units)” value ([3]; time 45 min) was 293 units.

D(Pmc)GHRGD(O-Me-Tyr)RCR gave an IC50 [4] of 0.85 µM.

In the case of G(Pen)GHRGDLRCA [2G], the “ex vivo inhibition of AA-stimulated response relative to control” value (platelets) is reported as 43-70%, the “ex vivo inhibition of collagen-stimulated response relative to control” value (platelets) is reported as 12-50% and the “template bleeding and clotting times” value ([5]; animal 1) is reported as “did not lower”. For the same substance, the platelet count reduced [5, 7] was 14%, the “white blood cell count reduced” value [5, 7] was 37% and the “template bleeding time, clotting time, all blood cell counts” value ([5]; animal 2) was “no effect”.

Substance G(Pen)GRGDLPCA has an IC50 [4] of 0.013 µM.

For R(Pmc)GHRGD(O-Me-Tyr)RCR, the IC50 [1] was 6.4 µM and 8.7 µM, the IC50 [4] was 9.9 µM and 6.04 µM and the IC50 (GP IIb/IIIa) was 0.06 µM and 0.07 µM.

In the case of R(Pmc)GHRGD(Y-OMe)RCR, the “CBT” value ([6]; time 0 min (pre-infusion)) is reported as 2.9 min, the “CBT” value ([6]; time 0 min (pre-infusion), listed as R(PmC)GHRGD(Y-OMe)RCR) is reported as 2.1 min and the “CBT” value ([6]; time 10 min) is reported as 0.8 min. The “CBT” value [6, 8] was 3.8 min, the “CBT” value ([6]; time 45 min) was 1.5 min and the “CBT” value [6, 9] was 1.2 min. For the same substance, the “PBF (units)” value ([3]; time 10 min) was 5 units, the “PBF (units)” value [3, 8] was 0 units and the “PBF (units)” value ([3]; time 45 min) was 360 units. For the same substance, the “PBF (units)” value [3, 9] was 263 units.

“R(am-Pmp)GHRGDLRCR [R(am-Pmp)GHRGDLRCR-1]” gave an IC50 [1] of 1.1 µM and an IC50 (GP IIb/IIIa) of 0.4 µM.

T(Pmc)GRRGD(O-Me-Tyr)RCR showed an IC50 [1] of 10 µM, an IC50 [4] of 10 µM and an IC50 (GP IIb/IIIa) of 0.052 µM.
